Results on one compound are retold here after US20060083754A1, “Pharmaceutical combinations comprising corticoids and immunosuppressants for treating corticoid- and/or calcineurin inhibitors-resistant diseases” (priority 2003, published 2006).

The subject of this test is human peripheral blood mononuclear cells (PBMC). The test is described as follows: T-cell proliferation assay (BrdU ELISA), PBMC stimulated with anti-CD3 mAb + anti-CD28 mAb. The test is classed as cell-based.

“And” between values parts separate entries of the source, which are not always exact repeats. Equal values may be shown once.

On to `C[C@@H]1C[C@H]2[C@@H]3CCC4=CC(=O)C=C[C@]4(C)[C@@]3(F)[C@@H](O)C[C@]2(C)[C@@]1(O)C(=O)CO` [DEX, dexamethasone], for which the OD is 0.885 and 0.687 and 0.643 and 0.866.
